## Ab-14 light chain CDR variants: yeast mating affinities

Reference: Engelhart et al. 2022, doi:10.1038/s41597-022-01779-4. File: FLAb, binding data.

All variants were tested on one target, the spike HR2 peptide PDVDLGDISGINAS (SARS-CoV-2).

Parent scFv Ab-14: VH joined to VL by three GGGGS repeats. Changes lie in the light chain CDRs alone.
VH: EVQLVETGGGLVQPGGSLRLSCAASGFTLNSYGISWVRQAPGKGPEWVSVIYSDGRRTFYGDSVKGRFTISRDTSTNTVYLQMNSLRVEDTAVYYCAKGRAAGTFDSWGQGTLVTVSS
VL: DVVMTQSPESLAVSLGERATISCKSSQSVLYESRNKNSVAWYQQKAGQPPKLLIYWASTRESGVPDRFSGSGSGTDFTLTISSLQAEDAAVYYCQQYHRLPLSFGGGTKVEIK

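The parent was found by panning a naive human phage display library on the peptide. AAYL50 was designed without a model: most single CDR substitutions and a random sample of double and triple ones. Affinity was read by AlphaSeq, a pooled yeast mating assay with surface-displayed partners. The frequency of each diploid, read from paired DNA barcodes, reflects how well the two displayed proteins bind. Each replicate has its own calibration line, from reference interactions of the BCL2 family. Each pool was mated in three replicate cultures.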

Variants are written as CDR1, CDR2 and CDR3 of the light chain (limits as in the source). Parent: KSSQSVLYESRNKNSVA, WASTRES, QQYHRLPLS.
Every variant below is changed at L100 of the VL (sequential numbering).
Values are log10 of the apparent Kd in nM; lower means stronger binding.
Averages over replicates are reported, and they cover detected replicates only.
"nd" marks a missing value. The strain was present, yet no cells mated with the target were sequenced in that replicate, which points to weak or no binding.
The list is sorted by this average, lowest first, undetected variants last.
In this assay the parent's reference entry averaged 0.65; its copy inside this library read 1.68.
As a blank, each scFv also met three strains without target: over library AAYL50, 18% of these pairings were detected, typically at 4.19 and seldom below 2.99.

- KSSQSVLYESRNKNSVA | WASTRES | QQYHRKPLS: 0.99, 1.09, 0.82 (mean 0.97)
- KSSQSVLYEDRNKNQVA | WASTRES | QQYHRFPLS: 1.03, 0.97, 0.96 (mean 0.99)
- KSSQSVLYESRNKQSVA | WASTRES | QDYHRRPLS: 1.13, 0.95, 0.97 (mean 1.02)
- KSSQSVTYESRNKNSVA | WASTRES | QQYHRTPWS: 1.04, 1.19, 1.20 (mean 1.14)
- KSSQSVLYESRNKTSVA | WASTRES | QQYHRHPAS: 1.81, 1.78, 1.94 (mean 1.84)
- KSSQSVLYESRNKASVA | WASTRES | QQYHRTPLS: 2.18, 2.20, 1.97 (mean 2.11)
- KSMQSVLYHSRNKNSVA | WASTRES | QQYHRKPLS: 2.23, 2.32, 2.42 (mean 2.32)
- KSSQSVLYESRNKNSVA | WARTRES | QQYHRYCLS: 2.68, 2.64, 2.62 (mean 2.64)
- KSSQSVLYFKRNKNSVA | WASTRES | QQYHRMPLS: 3.32, 2.71, 3.44 (mean 3.16)
- KSSQSALYESRNKNSVA | WASTRES | QQYHRMPLS: 2.60, 5.21, 2.56 (mean 3.46)
- KSSQRVLYESRNKNSVA | WASTRDS | QQYHRYPLS: 3.90, 3.04, nd (mean 3.47)
- KSSQSVLYESRNKNSVA | WASTRES | QQYHRAPLS: 3.54, nd, nd
- KSSQSVLYESRNKNIVA | WACTRES | QQYHREPLS: 3.78, 3.80, nd (mean 3.79)
- KSSQSVLYESCNKNSVA | WASTRES | QQYHRCPLS: 3.83, nd, 4.19 (mean 4.01)
- KSSQSVLYYSRNKNSVA | WASTRES | QQYHRTFLS: nd, 4.08, nd
- KSSTSVLYESRNKNSVA | WASTRES | QQYHMQPLS: nd, 3.86, 4.45 (mean 4.16)
- KSSQRVLYESRNKNSDA | WASTRES | QQYHRNPLS: nd, 4.39, 4.58 (mean 4.49)
- KSSQMVLYESRNKNSVA | WASTRES | HQYHRNPLS: nd, 4.56, nd
- KSSQSVLYESRNKNSVA | WAWTRES | QQYHRNPHS: 4.49, 3.55, 5.91 (mean 4.65)
- KSSQSILYEARNKNSVA | WASTRES | QQYHRTPLS: 5.05, 5.06, nd (mean 5.06)
- KSSQSVLYESKNKNSVA | WASTRES | QQGHRMPLS: 4.71, 5.48, nd (mean 5.10)
- KSSQSVLYESMNKNSNA | WASTRES | QQYHRQPLS: 5.81, nd, 5.57 (mean 5.69)
- KSSQSVLYESRNKNSVA | WASTRES | QQYHLCPQS: 6.37, nd, nd
- KSHQSVLYESRNKNSIA | WASTRES | QQYHRKPLS: nd, nd, nd
- KSSQSVLYESRNKSSVA | AASTRES | QQYHRAPLS: nd, nd, nd
- KSSRSVLYESRNKNSVA | WASTRES | QQYHRGPSS: nd, nd, nd
- WSSQSVEYESRNKNSVA | WASTRES | QQYHRNPLS: nd, nd, nd
- KSSQSVLYESRNKNSSA | WASTRES | QQYHTIPLS: nd, nd, nd
- KSSQSVHYEIRNKNSVA | WASTRES | QQYHRNPLS: nd, nd, nd
- FSSQSVLYESRNKNSYA | WASTRES | QQYHRYPLS: nd, nd, nd
- KSSQSVLYESRNKNSAA | WASTRES | QQYHRVPLY: nd, nd, nd
- KSSQSVGYESRHKNSVA | WASTRES | QQYHRVPLS: nd, nd, nd
- KSSQSVLYESRNKNSVA | WASTREM | QQYHRTPWS: nd, nd, nd
- KSSQSVLYESRNKHSVT | WASTRES | QQYHRDPLS: nd, nd, nd
- KSSQSVLYESRNKNSVW | WASTREF | QQYHRWPLS: nd, nd, nd
- KSSQSVLYESRNKNSVA | WASTRES | QQYHRNPLS: nd, nd, nd
- ESSWSVLYESRNKNSVA | WASTRES | QQYHRVPLS: nd, nd, nd

The closing 6 entries, repeated:

| CDR-L1 | CDR-L2 | CDR-L3 | replicates, log10 nM | log10 Kd (nM), mean |
|---|---|---|---|---|
| KSSQSVGYESRHKNSVA | WASTRES | QQYHRVPLS | nd, nd, nd | nd |
| KSSQSVLYESRNKNSVA | WASTREM | QQYHRTPWS | nd, nd, nd | nd |
| KSSQSVLYESRNKHSVT | WASTRES | QQYHRDPLS | nd, nd, nd | nd |
| KSSQSVLYESRNKNSVW | WASTREF | QQYHRWPLS | nd, nd, nd | nd |
| KSSQSVLYESRNKNSVA | WASTRES | QQYHRNPLS | nd, nd, nd | nd |
| ESSWSVLYESRNKNSVA | WASTRES | QQYHRVPLS | nd, nd, nd | nd |